Yeast mating assay 1: variants of the scFv Ab-14

Values reported by Engelhart et al. 2022, doi:10.1038/s41597-022-01779-4 (FLAb copy).

The target is the same throughout: PDVDLGDISGINAS, from the HR2 region of SARS-CoV-2 spike.

Parent: Ab-14, a human scFv built as VH, the linker GGGGSGGGGSGGGGS, VL. Only the CDRs of the light chain vary.
VH: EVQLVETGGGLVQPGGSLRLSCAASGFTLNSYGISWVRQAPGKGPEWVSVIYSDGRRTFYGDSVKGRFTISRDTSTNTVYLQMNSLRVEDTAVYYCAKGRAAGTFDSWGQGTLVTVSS
VL: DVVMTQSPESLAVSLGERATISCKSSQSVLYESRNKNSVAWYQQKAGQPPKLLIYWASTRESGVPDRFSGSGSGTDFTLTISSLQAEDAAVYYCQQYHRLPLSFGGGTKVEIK

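The starting antibody came from a phage panning campaign against this peptide. In library AAYL50, one, two or three CDR residues were substituted; doubles and triples were drawn at random. In AlphaSeq, yeast of one mating type display the scFv and yeast of the other type display the target. After mating in shaken culture at 30 °C for 16 h, diploids were selected and their barcode pairs sequenced. Read counts were normalised to the haploid input and turned into Kd by a linear fit to BCL2-family pairs of known affinity, for each replicate. Mating was done three times.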

The parent's light chain CDRs are KSSQSVLYESRNKNSVA, WASTRES, QQYHRLPLS; each variant's own CDRs replace them letter for letter. Affinities are written as log10 Kd with Kd in nM; a lower number is a better binder. A mean of the replicates is given; it leaves out those without a signal. "nd" marks a missing value. The strain was present, yet no cells mated with the target were sequenced in any replicate, which points to weak or no binding.

With KSSQSVAYESRNKNSVA / WASTRES / QQYHRLLVS the result was 3.92 (3 of 3 replicates; controls 2 of 9).
With KSSQSVLYENRNKNSVA / WASTRGS / QQYHRLPLY the result was 2.57 (3 of 3 replicates; controls 4 of 9).
With KSSQSVLYMSRNKNTNA / WASTRES / QQYHRLPLS the result was 4.85 (2 of 3 replicates; controls 1 of 9).
With KSSFSVLYESRNKDSVA / WASTRES / QQYHRLPRS the result was 4.29 (2 of 3 replicates; controls 3 of 9).
With KSFQKVLYMSRNKNSVA / WASTRES / QQYHRLPLS the result was 3.43 (3 of 3 replicates; controls 2 of 9).
With KSFQSVLYESRNKNSVA / WASTRRN / QQYHRLPLS the result was 3.96 (1 of 3 replicates; controls 0 of 9).
With KSSQSVLYESYNKNSVA / RESTRES / QQYHRLPLS the result was 5.72 (2 of 3 replicates; controls 3 of 9).
With KSSQSVLYESRNKNSVW / WASTRES / QVYHRLPRS the result was nd (0 of 3 replicates; controls 2 of 9).
With KSSQSVLYESRNKNSVA / WTETRES / QQYHQLPLS the result was 1.69 (2 of 3 replicates; controls 0 of 9).
With KSEQSVLFESRNKNSVA / WATTRES / QQYHRLPLS the result was 0.97 (3 of 3 replicates; controls 3 of 9).
With KSSQSWLDESRNKNSVA / WASTGES / QQYHRLPLS the result was 6.09 (1 of 3 replicates; controls 5 of 9).
With KSSQSVLYLSRNKNSVA / WASTRES / QQYHLLPPS the result was 1.48 (3 of 3 replicates; controls 0 of 9).
With HSSQSVLYESRNKNKVA / WASTRES / QQYHILPLS the result was 5.51 (1 of 3 replicates; controls 1 of 9).
With KSSQSVLYESRNKNSYA / WASTRES / QQYCRLPLS the result was 3.87 (2 of 3 replicates; controls 6 of 9).
With KSSQSVLYESRNKNNVA / WASTRES / QQYHILFLS the result was 5.56 (1 of 3 replicates; controls 1 of 9).
With KSSQSCLYESRNKNSVA / WRSTRES / QQYHELPLS the result was 2.94 (1 of 3 replicates; controls 3 of 9).
With KSSQSVLYESRNKNSVA / WASTRAS / QQYHRTPLG the result was 1.68 (3 of 3 replicates; controls 3 of 9).
With KSSQSVLYQSRDKNMVA / WASTRES / QQYHRLPLS the result was 3.25 (3 of 3 replicates; controls 3 of 9).
With KSSQSVLYESRNKNSVP / WACTRES / QQYHRLPLS the result was 3.52 (1 of 3 replicates; controls 0 of 9).
With KSSQSVYYESRNKNSVA / WATTRES / QQYHRLPLQ the result was 1.31 (3 of 3 replicates; controls 1 of 9).
With KSSQSVLYESRNKNSVA / MASTRQS / QQYHVLPLS the result was 0.68 (3 of 3 replicates; controls 2 of 9).
With PSSRSVLYESRNKNSVA / WTSTRES / QQYHRLPLS the result was 4.02 (3 of 3 replicates; controls 5 of 9).
With KSSQSVLYEFRNKNSVA / WASTRES / QQYQRLPLS the result was 2.02 (3 of 3 replicates; controls 1 of 9).
With RSSQSVLYESRNKNSVA / IASTRES / QQYHRLPLS the result was nd (0 of 3 replicates; controls 2 of 9).
With KSSQSPLYEARNKNSVA / WASTRES / QQYHRLPLS the result was 0.68 (3 of 3 replicates; controls 1 of 9).
With KSSQSVLYESRNKNSVA / WWDTRES / QQYHRLELS the result was nd (0 of 3 replicates; controls 0 of 9).
With KSSQIVLYESRNKNSVA / WASTRES / QQYHRTPLL the result was nd (0 of 3 replicates; controls 0 of 9).
With KSSQSTLYEERNKNSVA / WASTRES / QKYHRLPLS the result was 4.44 (1 of 3 replicates; controls 2 of 9).
With KSSQSTLYESRNKNSVA / WASTRSS / QSYHRLPLS the result was 2.33 (3 of 3 replicates; controls 4 of 9).
With KSSQSVLVSSRNKNSVA / WASTRES / QQYHRLPDS the result was 0.74 (3 of 3 replicates; controls 1 of 9).
With KSSQSVLYESRNKVSVP / WASTREA / QQYHRLPLS the result was nd (0 of 3 replicates; controls 1 of 9).
With KSSQSVLYESRNKNSDA / WASTREY / QKYHRLPLS the result was 5.26 (1 of 3 replicates; controls 1 of 9).
With KNSQSHLYESRNKNSVA / WASTRES / QQYHRLALS the result was 1.63 (3 of 3 replicates; controls 0 of 9).
With KSSQSVLYESRNKGSVA / WASTRES / AQYHRLPLS the result was 3.41 (3 of 3 replicates; controls 4 of 9).
With KSSQSVLYESRNKNSVA / QASTRES / QQTHRLPAS the result was nd (0 of 3 replicates; controls 2 of 9).
With KSSHSVLYESRNKCSVA / WASTRES / QQYHRLPLS the result was 2.27 (3 of 3 replicates; controls 0 of 9).
With KSSQSVLYESRNKECVA / WASTRES / QQYHRLFLS the result was 2.88 (3 of 3 replicates; controls 2 of 9).
With KSSQSVLYESRNKNSVA / WCSTRES / QQYHRVWLS the result was nd (0 of 3 replicates; controls 0 of 9).
With KSSQSVLYESRQKNSVA / WASTRES / QQYHRLPKS the result was 3.46 (1 of 3 replicates; controls 3 of 9).
With KSSQSVLNESRNKNSVA / TASTRES / QQYDRLPLS the result was 0.56 (3 of 3 replicates; controls 4 of 9).
With KFSQSVLNESRNKNSAA / WASTRES / QQYHRLPLS the result was 1.53 (3 of 3 replicates; controls 1 of 9).
With KSSQSVLRESRSINSVA / WASTRES / QQYHRLPLS the result was 3.27 (1 of 3 replicates; controls 2 of 9).
With KSSQSVLYESRNKNQVA / WASTRED / QQYHRLSLS the result was nd (0 of 3 replicates; controls 2 of 9).
With KSSQSVLYESRNKNSVA / WCSTRES / QQYQRLPLS the result was 3.35 (3 of 3 replicates; controls 0 of 9).
With KSSQSVLYESRNFHSVA / WASTRES / QHYHRLPLS the result was nd (0 of 3 replicates; controls 0 of 9).
With TSSQSVLYESRCKNSVA / WKSTRES / QQYHRLPLS the result was nd (0 of 3 replicates; controls 0 of 9).
With KSSQSVLINSRNKNSVA / WASTRES / QQYHRLPQS the result was 2.99 (2 of 3 replicates; controls 0 of 9).
With KSSQFVSYEERNKNSVA / WASTRES / QQYHRLPLS the result was 3.59 (1 of 3 replicates; controls 2 of 9).

Extract of 5 entries:

| CDR-L1 | CDR-L2 | CDR-L3 | log10 Kd (nM), mean | replicates with signal | signal with controls |
|---|---|---|---|---|---|
| KSSQSVLYESRNKNSYA | WASTRES | QQYCRLPLS | 3.87 | 2/3 | 6/9 |
| KFSQSVLNESRNKNSAA | WASTRES | QQYHRLPLS | 1.53 | 3/3 | 1/9 |
| RSSQSVLYESRNKNSVA | IASTRES | QQYHRLPLS | nd | 0/3 | 2/9 |
| KNSQSHLYESRNKNSVA | WASTRES | QQYHRLALS | 1.63 | 3/3 | 0/9 |
| KSSQSTLYESRNKNSVA | WASTRSS | QSYHRLPLS | 2.33 | 3/3 | 4/9 |

As a blank, each scFv also met three strains without target: over library AAYL50, 18% of these pairings were detected, typically at 4.19 and seldom below 2.99. Also given: how often the same scFv was detected with the empty control strains. For reference, the parent read 0.65 as the reference entry and 1.68 as a member of this library.